Series [1] is described as follows: Enzyme stability in human liver S9 fractions. The class given is in vitro ADME. The following applies: 0,5 mg/mL pooled human liver S9 fractions; 10 µM compound; 37°C; pH=7,4. The protocol: Measuring of candidates' enzyme stability enabled estimation of the stability of the present compounds towards the action of enzymes in human liver S9 fractions.
Enzyme degradation rate was measured by incubating the reaction mixture in a dry block thermostat at 37°C, said reaction mixture comprising 0,5 mg/mL of pooled human liver S9 fractions (XenoTech, USA, cat#H0610), 10 µM compound, 2 mM β-nicotinamide adenine dinucleotide (Carbosynth, UK, cat#NN10871) and 4 mM magnesium chloride in 0,1 M sodium-phosphate buffer, pH=7,4. The reaction was quenched with acetonitrile (100 µL of acetonitrile / 100 µL of the reaction mixture). After quenching, the samples were centrifuged at 10000 rpm for 10 minutes. Supernatant fluid was tested by chromatographic technique using Agilent1200 (Agilent, USA). Chromatographic analysis was performed in a gradient elution regime with a flow rate of 1 mL/min. A graph of the logarithm of substance's peak area as a function of time was made.

Series [2] deals with HepG2 cells. In words: General cytotoxicity test on HepG2 cells. Particulars: 72 h incubation; 200 to 0.78 µM; average values of several tests; read-out: Hep-G2 CC50, mkM. The format is cell-based. The procedure:
Cell viability was assessed using the above method. Table 6. […] The results are presented as average values of activity obtained in several tests.

Series [3] relates to Caco-2 cell monolayer. The series is described as follows: Permeability through Caco-2 cell monolayer. The class given is in vitro ADME. Particulars: efflux = Papp B-A / Papp A-B. The procedure: Estimation of permeability through Caco-2 cell monolayer enables assessment of the ability of the substances to penetrate through biological membranes by means of both active and passive transport.
Intestinal epithelial cells Caco-2 were grown on filter inserts (pore size 0.4 µm, BD Falcon with High Density) for 21 days; monolayer integrity was then checked using Lucifer Yellow (Sigma-Aldrich, USA) according to the standard protocol. In A->B transfer ("intestinal lumen" - "blood stream" transfer), solutions of the test substances in buffer, pH 6.5 (HBSS, 10 mM HEPES, 15 mM glucose) at a concentration of 10 µM were added to the upper chamber; whereas the lower chamber was filled with buffer, pH 7.4 (HBSS, 10 mM HEPES, 15 mM Glucose, 1% BSA). […]
After 2 hours incubation at 37 ° C under an atmosphere containing 5% CO2, the amounts of the test substances in the upper and lower chambers were measured by HPLC using an Agilent1200 HPLC system (Agilent, USA), proteins were preliminarily precipitated with acetonitrile. […] The peak areas corresponding to the compounds were detected on chromatograms.
The value was calculated using the formula: efflux = Papp B−A /Papp A−B , [formula] where • Papp A-E - the value of permeability direct analysis A→ B; • Papp B-A - the value of the permeability of the reverse analysis B→ A.
On the technique in general: Caco-2 monolayers are a common model of the intestinal barrier.

Series [4] is described as follows: Chemical stability in human blood plasma. The class given is in vitro ADME. The following applies: pooled human blood plasma; 10 µM; 4 hours at 37°C; substance amount in % after thermostatting. The protocol:
Chemical stability of the compounds described herein was determined in simulated gastric fluid and human blood plasma.
Determination of stability in human blood plasma was performed using pooled human blood plasma taken from ten healthy donors. The initial candidate solution (10 mM in DMSO) was diluted with pooled blood plasma to a concentration of […] (test solution). The test solution was incubated in a dry block thermostat for 4 hours at 37°C. HPLC with Agilent 1200 liquid chromatography system (Agilent, USA) was employed to determine peak areas of the compounds in test samples, said peak areas corresponding to the initial test time (prior to incubation) and the final test time (after incubation in a dry block thermostat for 4 hours at 37°C), proteins were preliminarily precipitated with acetonitrile. Chromatographic analysis was performed in a gradient elution regime with a flow rate of 1 mL/min. Substance amount in % in a sample after thermostatting was determined.

By CC50 is commonly meant the concentration that lowers cell viability or growth by half. In the case of `Cn1cc(-c2ccc(-c3cncc4ncc(C(=O)NC5CC5)cc34)cc2)cn1` [CDK8-3-37], in series [1], the “Stability in S9, Clint” value was determined as 10.05 µL/min/mg. In addition, in series [2], the CC50 amounted to 98.2 µM. The same compound had an efflux in series [3] of 1.0. In addition, the “Stability in blood plasma, %” value in series [4] is listed as 100%.
Regarding `Cn1cc(-c2ccc(-c3cncc4ncc(C(=O)NCC5CC5)cc34)cc2)cn1` [CDK8-3-39], the CC50 in series [2] worked out at 50.2 µM. In addition, the efflux in series [3] is 0.8.

The values are drawn from patent EP3666770A1, “NOVEL HETEROCYCLIC COMPOUNDS AS CDK8/19 INHIBITORS” (Joint Stock Company "Biocad", priority 2017, dated 2019).
